Reference: patent US5624818, “Nucleic acids encoding regulatory proteins that dimerize with Mad or Max” (Fred Hutchinson Cancer Research Center, dated 1993)

Target: c-Myc ProZip (human, UniProt P01106-1)
Experiment: in vitro translated 35S-protein on GST-MaxC124 glutathione-Sepharose, SDS-PAGE; paragraph 128 calls these mutants ones that fail to bind to truncated Max

binding result: no binding
B1: GST-MaxC124 (other)
chain: DHIKDSFHSLRDSVPSLQGEKASRAQILDKATEYIQYMRRKNHTHQQDIDDLKRQNALLEQQVRALEKARSSAQLQTNYPSSDNSLYTNAKGSTISAFDGGSDSSSESEPEEPQSRKKLRMEAS
